The entries are a selection whose mix differs from that of the whole data set. Some of these compounds have results that are not shown, active ones among them. Calls of active or inactive are those of the source.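 Rule for the calls: active = every replicate shows inhibition above about 80%, whatever the replicate mean (limit read from the data); inconclusive = mean inhibition reaches the set limit but some replicate falls short; inactive = the rest.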

This assay can be described thus: growth inhibition of PfHsp90-expressing yeast, primary screen, antimalarial PfHsp90 inhibitor project, S. cerevisiae, BacTiter-Glo luminescence, single point, set 2 (AID 504621).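 Note: yeast relying on Plasmodium falciparum Hsp90 in place of its own; 0% = DMSO neutral controls and 100% = 20 µM radicicol positive controls.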 The conditions noted are these: BacTiter-Glo ATP, 48 h, at 9.4 µM, stronger effect = higher value, yeast lacking PDR1 and PDR3 efflux regulators.
As for `O=C(NCC1(N2CCCCC2)CCCCC1)c1cccc(Cl)c1`, the inhibition – broadly, the drop in the measured response relative to a control, in per cent – is inactive: 4.8%.

With `COc1cccc(C(=O)NCC2(N3CCCCC3)CCCCC2)c1`, the inhibition is inactive: 0.693%. Under `COc1ccc(Cl)cc1C(=O)NCC1(N(C)C)CCCCC1` stands inactive: 2.29%; under `COc1cc(C(=O)NCC2(N(C)C)CCCCC2)c([N+](=O)[O-])cc1OC`, inactive: -6.42%; under `CN(C)C1(CNC(=O)c2ccc(Br)cc2)CCCCC1`, inactive: 1.15%. Under `CC(C)Oc1ccc(C(=O)NCC2(N(C)C)CCCCC2)cc1` stands inactive: 3.67%; under `O=C(OCCN1CCCC1)C(O)(c1ccccc1)c1ccccc1`, inactive: -2.41%. For `CN(C)c1cccc(C(=O)NCC2(N(C)C)CCCCC2)c1`, the inhibition was inactive: -11%. As for `COc1ccc(Br)c(C(=O)NCC2(N3CCCCC3)CCCCC2)c1`, the inhibition is inactive: 10.6%. Under `O=C(OC1CN2CCC1CC2)C(CO)(c1ccccc1)c1ccccc1` (stereo not given) stands inactive: 5.85%. Next, `Cc1ccc(C(=O)NCC2(N3CCCCC3)CCCCC2)cc1`: inactive: 12.6%.

For the molecule `CCN(CC)CC(C)C(C)OC(=O)C(O)(c1ccccc1)c1ccccc1` (stereo not given), the inhibition is inactive: 3.41%.

Take `COc1cc(SC)ccc1C(=O)NCC1(N(C)C)CCCCC1`: the inhibition is inactive: 0.444%. For the molecule `CC(C)N1C(=O)CC2(CCN(CCOC(=O)C(O)(c3ccccc3)c3ccccc3)CC2)C1=O`, the inhibition is inactive: 0.45%. Under `CN1[C@@H]2CC[C@H]1CC(OC(=O)C(O)(c1ccccc1)c1ccccc1)C2` (stereo not given in full) stands inactive: -29.3%.

With `O=C(NCC1(N2CCCCC2)CCCCC1)c1cc([N+](=O)[O-])ccc1Cl`, the inhibition was inactive: -38.7%. For the molecule `COc1ccc(C(=O)NCC2(N(C)C)CCCCC2)cc1`, the inhibition was inactive: 11.9%. Next, `Cc1cc(C(=O)NCC2(N3CCCCC3)CCCCC2)ccc1[N+](=O)[O-]`: inactive: 17.2%.

In the case of `CCN1CCCC(OC(=O)C2(O)c3ccccc3C=Cc3ccccc32)C1` (stereo not given), the inhibition was inactive: 19.8%. Under `O=C(NCC1(N2CCCCC2)CCCCC1)c1cccc(Br)c1` stands inactive: 23.4%; under `C=CCN1CCN(CCOC(=O)C(O)(c2ccccc2)c2ccccc2)CC1`, inactive: -22.9%; under `O=C(NCC1(N2CCCCC2)CCCCC1)c1cc(F)c(F)cc1Cl`, inactive: 20.2%. Next, `Cc1ccccc1C(=O)NCC1(N2CCCCC2)CCCCC1`: inactive: 3%; `CN(C)C1CCCC1OC(=O)C(O)(c1ccccc1)c1ccccc1` (stereo not given): inactive: -16.8%; `CN(C)c1ccc(C(=O)NCC2(N(C)C)CCCCC2)cc1`: inactive: 6.99%.
